SMILES strings stand for the structures.

The test system of one series is MDM2. In words: MDM2 protein levels by western blot in CAL33 cells. In kind it is cell-based, human. The settings on record: dose- and time-dependent. As for the experimental part:
To specifically degrade USP7, a set of 66 PROTAC compounds were designed and synthesized that contain an USP7 specific binding moiety XL177A and an E3 ubiquitin ligase (CRBN or VHL) binding moiety connected by different linkers. All putative USP7 PROTACs were used to treat CAL33 cells that express high levels of USP7 protein, and then the USP7 protein levels were determined by western blot (FIGS. 10A and 10B). Through initial screening, PU7-1 was identified as a potential USP7 degrader (FIG. 3A and FIG. 10). […] The effect of PU7-1 was also tested in several human cancer cells harboring wild-type p53. […] In addition, to exclude the possibility that PU7-1 affects the USP7 protein levels by regulating its transcription, a quantitative real-time PCR was performed in CAL33 treated with PU7-1 for 72 h. […]
Cells were lysed in FLAG lysis buffer (50 mM Tris-HCl (pH 7.3), 137 mM NaCl, 10 mM NaF, 0.5 mM EDTA, 1% Triton X-100, 0.2% Sarkosyl, 10% glycerol) freshly supplemented with protease inhibitor cocktail. Protein concentration was determined by the Bio-Rad protein assay. […] Membranes were blocked with 5% (w/v) nonfat milk in Tris-buffered saline with Tween-20 (TBST), incubated with primary antibodies, then secondary HRP-conjugated antibodies (Jackson ImmunoResearch, 1:10000 dilution) and detected on autoradiographic films after incubating with ECL (Thermo Scientific, #32106). […]

In the next series the test system is USP7 mRNA. The experiment in a line: Quantitative real-time PCR of USP7 mRNA in CAL33. The settings on record: CAL33, 72 h. The protocol: USP7 protein levels were detected by immunoblots. […] USP7 protein levels were measured by immunoblots. […] USP7 protein levels were detected by immunoblots, then quantified by ImageJ after normalized to internal control β-actin. Half maximal degradation concentration (DC50) was calculated by Graphpad Prism.
To specifically degrade USP7, a set of 66 PROTAC compounds were designed and synthesized that contain an USP7 specific binding moiety XL177A and an E3 ubiquitin ligase (CRBN or VHL) binding moiety connected by different linkers. All putative USP7 PROTACs were used to treat CAL33 cells that express high levels of USP7 protein, and then the USP7 protein levels were determined by western blot (FIGS. 10A and 10B). Through initial screening, PU7-1 was identified as a potential USP7 degrader (FIG. 3A and FIG. 10). […] The effect of PU7-1 was also tested in several human cancer cells harboring wild-type p53. […] In addition, to exclude the possibility that PU7-1 affects the USP7 protein levels by regulating its transcription, a quantitative real-time PCR was performed in CAL33 treated with PU7-1 for 72 h. […] In addition, the half-life of USP7 protein was examined in CAL33 cells in the presence or absence of PU7-1 treatment. […] CAL33 were also treated with the different dosage of PU7-1 ranging from 0.0001 to 10 µM for 24 h. […]
(In general: Quantitative PCR measures a nucleic acid by following its amplification.)

The next series has as its system CAL33 cells. In words: BrdU incorporation in CAL33 cells. The format is cell-based, human. The conditions noted are these: CAL33, 10 μM, 72 h. The protocol:
(§1) FIGS. 12A and 12B show representative images of BrdU staining (FIG. 12A) and quantification of BrdU positive (BrdU+) cells (FIG. 12B) in CAL33 cells treated with or without 10 μM of PU7-1 for 72 h. ****p<0.0001. FIGS. 12C and 12D show representative images (FIG. 12C) and normalized absorbance at 600 nm (FIG. 12D) of colony-formation assays in BT474, CAL33, DU145, SK-NDZ treated with or without 10 μM of PU7-1 for 2 weeks.
(§2) Transcription factor FOXM1 is a master regulator of the cell cycle. It tightly controls the cell cycle progression and maintains sustained cell proliferation via its various downstream target genes crucial for cell cycle regulation 16. To explore the functional consequences of PU7-1-mediated FOXM1 degradation, a transcriptome analysis was performed. CAL33 cells were treated with or without 10 μM of PU7-1 for 96 h and total RNA were extracted for RNAseq analysis. We identified ˜5000 differentially expressed genes (DEGs) in DMSO-treated versus PU7-1-treated cells (FIG. 22). […] This effect was further validated in CAL33 cells by quantitative real-time PCR (FIG. 4H).
Cells were incubated with 10 μg/ml BrdU (BD, 51-2420KC) for 3 h and fixed with cold 70% ethanol. DNA was denatured in 1.5N HCL for 30 min. Cells were blocked with 1% BSA in PBS, and incubated with anti-BrdU antibody (Roche, clone #BMC9318) at 4° C. overnight. […]

The test system of series [1] is CAL33, BT474, DU145 and SK-N-DZ. In words: Colony formation assay in several human cancer cell lines. In kind it is cell-based. The conditions noted are these: 10 μM, 2 weeks. The protocol: as §1, §2
1000 cells (10000 cells for BT474) were seeded in 12-well plates. Next day cells were treated with DMSO or PU7-1 for 2 weeks. […] For quantification purpose, 1 ml of 30% acetic acid was added to de-stain for 15 min with gentle rotation. The absorbance at 600 nm was measured by using a plate reader in triplicates.

In another series the test system is BT549. The settings on record: 10 µM. As for the experimental part: (§3) Given the high expression of FOXM1 in triple-negative breast cancer, the effects of the USP7 degrader PU7-1 were next investigated in TNBC cells. First, three TNBC cell lines MDA-MB-468, MDA-MB-231 and BT549 were treated with 10 μM of PU7-1 for 96 h. The protein levels of FOXM1 were determined by Western blot. […] Next, the effects of PU7-1 were examined on TNBC cell proliferation. MDA-MB468 and BT549 were incubated in the complete growth medium with or without 10 μM of PU7-1 for two weeks. Colonies were stained by crystal violet dye that stains nucleic acids and proteins and is used to reflect the cell number. […] Furthermore, the dye bound to the cells was solubilized with 30% acetic acid and measured by the absorbance at 600 nm. The viability of PU7-1-treated cells is about 20% of the control cells in MDA-MB-468 or 30% of the control cells in BT549 (FIG. 5C). […] The IC50 of PU7-1 in TNBC cells were then determined using a luminescent cell viability assay. […] Lastly, the xenograft mouse model was utilized to investigate the in vivo efficacy of PU7-1 in TNBC. […]
(§4) 1000 cells (10000 cells for BT474) were seeded in 12-well plates. […] For quantification purpose, 1 ml of 30% acetic acid was added to de-stain for 15 min with gentle rotation. The absorbance at 600 nm was measured by using a plate reader in triplicates.

Another series concerns MDA-MB-468. The settings on record: 10 µM. The protocol: as §3, §4

As usually defined, the viability is the share of living cells, or the viability signal relative to a control. High values mean better survival, low ones a greater loss of cells. For `O=C1CCC(N2Cc3c(CCCCCN4CCN(CCC(=O)Nc5ccc6c(=O)n(CC7(O)CCN(C(=O)C(CCCNC(=O)c8ccc9c(Cl)c%10c(nc9c8)CCCC%10)Cc8ccccc8)CC7)cnc6c5)CC4)cccc3C2=O)C(=O)N1` (stereo not drawn), the MDM2 protein levels entry in the series on MDM2 is recorded as “decreased significantly”. In the series on USP7 mRNA, the “expression levels of USP7 mRNA” value is “not altered”. The “percentage of BrdU incorporation” value in the series with CAL33 cells was “significantly lower percentage”. Moreover, in series [1], the “growth inhibition in colony formation assay” value was “marked growth inhibition”. Moreover, the viability was determined as 30% with BT549 and 20% in the series on MDA-MB-468.

The record behind these values is US20240408094A1, “INHIBITION OF USP7 INDUCES P53-INDEPENDENT TUMOR GROWTH SUPPRESSION IN TRIPLE-NEGATIVE BREAST CANCERS BY DESTABILIZING FOXM1” (The Trustees of Columbia University in the City of New York, priority 2023, published 2024).
